Ab-14 heavy chain CDR variants: yeast mating affinities

The target is the same throughout: PDVDLGDISGINAS, from the HR2 region of SARS-CoV-2 spike.

Ab-14 is the parent antibody, in scFv form: VH, then a (GGGGS)3 linker, then VL. The light chain is unchanged in all variants.
VH: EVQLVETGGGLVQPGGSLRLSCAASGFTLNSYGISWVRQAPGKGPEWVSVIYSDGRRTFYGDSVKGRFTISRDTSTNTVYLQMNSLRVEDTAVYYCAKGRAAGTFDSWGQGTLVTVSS
VL: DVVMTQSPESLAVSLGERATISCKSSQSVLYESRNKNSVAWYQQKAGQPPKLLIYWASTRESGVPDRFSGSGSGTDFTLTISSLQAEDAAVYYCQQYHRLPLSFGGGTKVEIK

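Designed CDR sequences, proposed from the first random library and measured here. Group labels follow the data file (En: ensemble of fine-tuned language models; HC: hill climbing; Gen: genetic algorithm; Gibbs: Gibbs sampling; a sequence that several methods proposed may carry one label only). Affinity was read by AlphaSeq, a pooled yeast mating assay with surface-displayed partners. Mating (16 h, 30 °C) was followed by selection of diploids and sequencing of their barcodes. Scores were corrected for input abundance and mapped to Kd with protein pairs of known affinity run in the same pool. There are six technical replicates.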

Each variant is given by its three heavy chain CDRs, as the data file delimits them; those of the parent are GFTLNSYGIS, VIYSDGRRTFYGDSVK, GRAAGTFDS. Variants here have more than six changes. Numbers give log10(Kd / nM), so 0 is 1 nM and 3 is 1 µM. Smaller is tighter. Replicates are averaged; those with no signal do not enter the mean. A pair that was not seen in that replicate is written "nd"; this usually means weak binding, but a binder can also be missed. Nonspecific signal, from three strains lacking the peptide, appeared in 1% of pairings of all heavy chain designs, centred on 2.08 (5% of these signals below 0.84); values are not corrected for it. The parent sequence was in this pool as ten entries: three were never detected, three once, and four in most replicates, with averages from 0.34 to 2.37. Values of this round are not directly comparable with the first-round values of the same sequences. The authors' rule: three or more of the six replicates give a measured affinity, fewer mean a poor binder.

- GFDLNEYGIS | VIYADGVRTAYADNVK | GETAGTFDQ [En_Gen] -> -0.60, -0.56, -0.93, -0.79, -0.70, -0.64 (mean -0.70)
- GFDLESYGIS | VIYADGYRSAYAQNVK | GGHAGGFHV [En_Gibbs] -> nd, nd, nd, nd, nd, nd
- GYDMEDYGIS | VIYADGSRQFYHDNFK | GQLAGTFVM [En_Gibbs] -> nd, nd, nd, nd, nd, nd
- GFDLDEYGIS | VIYADGKRTAYTDSVK | GEVAGTFDL [En_Gen] -> -0.82, -0.92, -0.14, -1.42, 0.48, -0.52 (mean -0.56)
- GFDIEEYGIS | VIYADGDRANYDQKVK | GTIAGTLVM [En_Gibbs] -> 0.43, 1.01, 0.62, -0.06, 0.79, 0.65 (mean 0.57)
- GFDIQEYGIS | VIYADGIRSAYIDNVK | GDTGSQFLE [En_Gibbs] -> nd, nd, nd, nd, nd, nd
- GFDLDEYGIS | VIYADGKRTAYADKVK | GNVAGTFDV [En_Gen] -> -0.28, -0.29, -0.21, -0.45, -0.26, -0.31 (mean -0.30)
- GFDLNEYGIS | VIYADGMRTAYTDSVK | GGNAGTFDL [En_Gen] -> -0.19, -0.25, -0.43, -0.59, -0.48, -0.10 (mean -0.34)
- GFDLEEYGIS | VIYADGKRAQYTDAVK | GEFLDMMTY [En_Gibbs] -> 0.82, 1.29, 0.17, 0.19, 1.32, 1.87 (mean 0.94)
- GFDLNEYGIS | VIYADGMRTAYSDDVK | GENAGTFDT [En_Gen] -> -0.54, -0.43, -0.40, -0.57, -0.55, -0.44 (mean -0.49)
- GFDLNEYGIS | VIYADGMRTAYADSVK | GNHAGTFDI [En_Gen] -> 0.02, 0.20, -0.09, 0.40, 0.04, -0.42 (mean 0.02)
- GFDLESYGIS | VIYADGRRTFYADKVK | GGNAGTFDI [En_HC] -> 0.16, -0.62, -1.02, -0.77, -0.73, -0.40 (mean -0.56)
- GFDLKEYGIS | VIYADGSRTAYSKNFK | GEDDIMVLV [En_Gibbs] -> nd, nd, nd, nd, nd, nd
- GFDLNEYGIS | VIYADGQRTAYADSVK | GNTAGTFDI [En_Gen] -> 0.07, -0.17, -0.24, -0.47, -0.22, 0.31 (mean -0.12)
- GFGLDEYGIS | VIYADGVRRSYVDNVK | GFDGEKSIV [En_Gibbs] -> nd, nd, nd, nd, nd, nd
- GFDLNEYGIS | VIYADGKRTAYIDSVK | GNTAGTFDV [En_Gen] -> -0.03, -0.54, -0.72, 0.21, -0.57, -0.35 (mean -0.33)
- GFDLEEYGIS | VIYADGSRTSYQESVK | GLVIGMLDM [En_Gibbs] -> nd, nd, nd, nd, nd, nd
- GKDLEEYGIS | VIYADGFRTAYKNQVK | GSGMIDTVV [En_Gibbs] -> nd, nd, nd, nd, nd, nd
- GFDLDEYGIS | VIYADGIRTNYSNSVK | GTIGGTFFQ [En_Gibbs] -> 3.06, 1.77, nd, 2.15, nd, nd (mean 2.33)
- GFDLGEYGVS | VIYADGHRAAYTDNVK | GVESGSIQN [En_Gibbs] -> nd, nd, nd, nd, nd, nd
- GFEIDEYGIS | VIYADGIRRQYADNVK | GYTDDAFDM [En_Gibbs] -> nd, nd, nd, nd, nd, nd
- GFDLESYGIS | VIYADGQRTAYADSVK | GNVAGTFDV [En_HC] -> -0.25, -0.33, -0.22, -0.40, -0.36, -0.20 (mean -0.29)
- GFDLNEYGIS | VIYADGRRTFYSDSVK | GETGGTFDE [En_HC] -> 0.52, 0.75, 0.55, 0.14, 0.34, 0.74 (mean 0.51)
- GFDLNEYGIS | VIYADGMRTFYADSVK | GQLAGTFDM [En_HC] -> 0.25, 0.44, 0.57, -0.52, -0.29, -0.12 (mean 0.05)
- GFNLDEYGIS | VIYADGRRTAYADSVK | GSHAGTFDT [En_HC] -> -1.01, -0.97, -0.42, -1.50, -1.26, -1.26 (mean -1.07)
- GFDLDEYGIS | VIYADGRRTFYADSVK | GEQAGTFDV [En_HC] -> -0.43, 0.01, -0.08, -0.58, 0.28, -0.31 (mean -0.18)
- GFNLDEYGIS | VIYADGRRTFYSDSVK | GEVAGTFDI [En_HC] -> -0.49, -0.34, -0.32, -0.59, -0.57, 0.20 (mean -0.35)
- GFDLGEYGIS | VIYADGRRKGYSDAVK | GINSINKTV [En_Gibbs] -> nd, nd, nd, nd, nd, nd
- GFDLDEYGIS | VIYADGQRTAYSDSVK | GTNAGTFDV [En_Gen] -> -0.44, -0.25, -0.40, -0.66, -0.27, -0.42 (mean -0.41)
- GFNLNEYGIS | VIYADGVRTFYADSVK | GQVAGTFDV [En_HC] -> -0.16, -0.58, -0.62, -0.72, -0.73, -0.32 (mean -0.52)
- GFDLNEYGIS | VIYADGRRTFYADSVK | GNQGGTFDL [En_HC] -> 0.38, 0.22, 0.47, 0.61, 0.80, 0.51 (mean 0.50)
- GFSLDEYGVS | VIYADGVRQSYCDDVK | GGIAGTFLY [En_Gibbs] -> nd, nd, nd, nd, nd, nd
- GESLDEYGIS | VIYADGQRVQYSNNVK | GLHFGVFDM [En_Gibbs] -> nd, nd, nd, nd, nd, nd
- GFDLNEYGIS | VIYADGRRTAYADSVK | GNNAGTFDL [En_Gen] -> nd, nd, nd, nd, nd, nd
- GFDLNEYGIS | VIYADGVRTAYIDSVK | GENAGTFDV [En_Gen] -> -0.50, -0.78, -0.86, -0.46, -0.81, -1.14 (mean -0.76)

Excerpt, the first 2 entries:

* GFDLNEYGIS | VIYADGVRTAYADNVK | GETAGTFDQ [En_Gen] = -0.60, -0.56, -0.93, -0.79, -0.70, -0.64 (mean -0.70)
* GFDLESYGIS | VIYADGYRSAYAQNVK | GGHAGGFHV [En_Gibbs] = nd, nd, nd, nd, nd, nd

Data: MIT Lincoln Laboratory AlphaSeq set, Li et al. 2023, doi:10.1038/s41467-023-39022-2, as distributed in FLAb.